In ChEMBL document CHEMBL2401704, “Inhibition of rhodesain as a novel therapeutic modality for human African trypanosomiasis” (J Med Chem, 2013):

System: Trypanosoma brucei
Test: Inhibition of Trypanosoma brucei rhodesain assessed as second order rate constant

K: 3.3 ×10⁶ /M/min
SMILES: C[C@H](NC(=O)[C@H](Cc1ccccc1)NC(=O)OCc1ccccc1)C(=O)C=[N+]=[N-]
